Like-named read-outs stand apart in the source and are kept apart here.
How the values were obtained:
CypB = CypB (Homo sapiens, UniProt P23284); settings: read-out: Wild-Type Cyclophilin Prolyl Isomerase Inhibition IC50 Values, CypB; wild-type CypB
NKTR = NKTR (Homo sapiens, UniProt P30414); assay: Chymotrypsin coupled prolyl-isomerase assay; type: biochemical; settings: read-out: Wild-Type Cyclophilin Prolyl Isomerase Inhibition IC50 Values, NKTR; wild-type NKTR
PPIL1 = PPIL1 (Homo sapiens, UniProt Q9Y3C6); assay: Chymotrypsin coupled prolyl-isomerase assay; type: biochemical
Cyp40 = Cyp40 (Homo sapiens, UniProt Q08752); assay: Chymotrypsin coupled prolyl-isomerase assay; type: biochemical
CypD = CypD (Homo sapiens, UniProt P30405); assay: Chymotrypsin coupled prolyl-isomerase assay; type: biochemical
CypE = CypE (Homo sapiens, UniProt Q9UNP9); assay: Chymotrypsin coupled prolyl-isomerase assay; type: biochemical; settings: read-out: Wild-Type Cyclophilin Prolyl Isomerase Inhibition IC50 Values, CypE; wild-type CypE
CypA = CypA (Homo sapiens, UniProt P62937); assay: Chymotrypsin coupled prolyl-isomerase assay; type: biochemical
CypG = CypG (Homo sapiens, UniProt Q13427); assay: Chymotrypsin coupled prolyl-isomerase assay; type: biochemical
CypC = CypC (Homo sapiens, UniProt P45877); assay: Chymotrypsin coupled prolyl-isomerase assay; type: biochemical; settings: read-out: Wild-Type Cyclophilin Prolyl Isomerase Inhibition IC50 Values, CypC; wild-type CypC
CypH = CypH (Homo sapiens, UniProt O43447); assay: Chymotrypsin coupled prolyl-isomerase assay; type: biochemical; settings: read-out: Wild-Type Cyclophilin Prolyl Isomerase Inhibition IC50 Values, CypH; wild-type CypH
PPWD1 = PPWD1 (Homo sapiens, UniProt Q96BP3); assay: Chymotrypsin coupled prolyl-isomerase assay; type: biochemical; settings: read-out: Wild-Type Cyclophilin Prolyl Isomerase Inhibition IC50 Values, PPWD1; wild-type PPWD1
[1] = read-out: Wild-Type Cyclophilin Prolyl Isomerase Inhibition IC50 Values, PPIL1, wild-type PPIL1
[2] = read-out: Wild-Type Cyclophilin Prolyl Isomerase Inhibition IC50 Values, CypD, wild-type CypD
[3] = read-out: Wild-Type Cyclophilin Prolyl Isomerase Inhibition IC50 Values, CypA, wild-type CypA
[4] = read-out: Wild-Type Cyclophilin Prolyl Isomerase Inhibition IC50 Values, CypG, wild-type CypG
[5] = read-out: IC50 CypG, prolyl-isomerase inhibition, 5 nM cyclophilin
[6] = read-out: IC50 PPIL1, prolyl-isomerase inhibition, 5 nM cyclophilin

Amino acid sequences for entries named in this document (tags omitted). Residues count along the entry.
UniProt P23284, 34-216 limits assumed: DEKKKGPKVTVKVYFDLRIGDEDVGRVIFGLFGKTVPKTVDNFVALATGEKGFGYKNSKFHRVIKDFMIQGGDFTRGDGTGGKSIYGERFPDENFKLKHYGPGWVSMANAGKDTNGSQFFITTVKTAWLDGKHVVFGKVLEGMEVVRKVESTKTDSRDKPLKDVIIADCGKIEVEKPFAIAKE
UniProt P30414, 7-179 limits assumed: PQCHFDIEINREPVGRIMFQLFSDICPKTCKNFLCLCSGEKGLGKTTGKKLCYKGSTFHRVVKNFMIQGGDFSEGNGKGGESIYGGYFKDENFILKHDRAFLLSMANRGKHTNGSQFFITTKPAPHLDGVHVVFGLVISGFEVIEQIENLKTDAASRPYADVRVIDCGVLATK
UniProt Q9Y3C6, whole entry: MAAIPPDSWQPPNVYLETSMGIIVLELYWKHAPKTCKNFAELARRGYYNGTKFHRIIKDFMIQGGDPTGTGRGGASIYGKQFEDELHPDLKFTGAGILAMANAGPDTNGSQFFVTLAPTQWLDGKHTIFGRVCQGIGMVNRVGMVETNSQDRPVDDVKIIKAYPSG
UniProt Q08752, 1-183 limits assumed: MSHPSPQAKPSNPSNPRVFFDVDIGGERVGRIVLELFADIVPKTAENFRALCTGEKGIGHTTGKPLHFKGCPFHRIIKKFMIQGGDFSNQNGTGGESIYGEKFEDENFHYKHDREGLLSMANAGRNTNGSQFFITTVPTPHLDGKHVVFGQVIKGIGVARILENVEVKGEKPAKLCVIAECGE
UniProt P30405, 45-207 limits assumed: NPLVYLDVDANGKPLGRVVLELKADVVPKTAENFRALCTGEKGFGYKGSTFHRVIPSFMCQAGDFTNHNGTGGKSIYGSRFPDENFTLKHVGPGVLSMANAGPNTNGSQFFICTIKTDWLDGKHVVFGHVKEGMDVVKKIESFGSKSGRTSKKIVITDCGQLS
UniProt Q9UNP9, 131-301 limits assumed: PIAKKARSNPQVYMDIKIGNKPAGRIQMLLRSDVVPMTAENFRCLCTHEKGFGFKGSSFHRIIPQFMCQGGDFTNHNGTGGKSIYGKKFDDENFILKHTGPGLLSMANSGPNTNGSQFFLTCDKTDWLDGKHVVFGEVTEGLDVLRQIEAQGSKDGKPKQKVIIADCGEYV
UniProt P62937, whole entry: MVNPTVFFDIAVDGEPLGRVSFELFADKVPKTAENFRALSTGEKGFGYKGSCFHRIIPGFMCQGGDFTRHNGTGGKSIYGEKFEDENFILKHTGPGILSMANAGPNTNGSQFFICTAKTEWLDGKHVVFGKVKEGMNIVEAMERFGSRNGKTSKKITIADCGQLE
UniProt Q13427, 1-179 limits assumed: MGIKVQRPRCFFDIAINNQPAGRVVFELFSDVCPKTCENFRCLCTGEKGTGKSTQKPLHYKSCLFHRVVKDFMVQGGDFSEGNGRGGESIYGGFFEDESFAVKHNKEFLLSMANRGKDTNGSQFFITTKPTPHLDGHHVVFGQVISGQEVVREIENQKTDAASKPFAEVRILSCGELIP
UniProt P45877, 24-212 limits assumed: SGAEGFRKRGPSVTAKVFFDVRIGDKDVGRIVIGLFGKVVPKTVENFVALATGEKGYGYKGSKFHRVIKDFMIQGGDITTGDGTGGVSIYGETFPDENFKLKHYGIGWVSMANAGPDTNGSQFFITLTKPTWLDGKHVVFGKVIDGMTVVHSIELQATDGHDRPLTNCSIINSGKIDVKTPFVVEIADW
UniProt O43447, whole entry: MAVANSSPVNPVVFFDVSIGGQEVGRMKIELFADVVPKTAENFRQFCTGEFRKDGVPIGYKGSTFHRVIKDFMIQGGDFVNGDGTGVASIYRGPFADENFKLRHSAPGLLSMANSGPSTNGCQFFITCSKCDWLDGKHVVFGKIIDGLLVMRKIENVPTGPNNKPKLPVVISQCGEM
UniProt Q96BP3, 473-646 limits assumed: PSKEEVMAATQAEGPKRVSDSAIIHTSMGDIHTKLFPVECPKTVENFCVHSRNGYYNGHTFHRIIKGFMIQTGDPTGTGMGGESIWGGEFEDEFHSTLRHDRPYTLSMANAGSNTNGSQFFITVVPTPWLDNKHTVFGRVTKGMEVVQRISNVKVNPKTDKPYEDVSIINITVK

Row | SMILES | IC50 (CypB) [µM] | IC50 (NKTR) [µM] | IC50 (PPIL1; [1]) [µM] | IC50 (Cyp40) [µM] | IC50 (CypD; [2]) [µM] | IC50 (CypE) [µM] | IC50 (CypA; [3]) [µM] | IC50 (CypG; [4]) [µM] | IC50 (CypC) [µM] | IC50 (CypH) [µM] | IC50 (PPWD1) [µM] | IC50 (Cyp40; read-out: Wild-Type Cyclophilin Prolyl Isomerase Inhibition IC50 Values, Cyp40, wild-type Cyp40) [µM] | IC50 (CypG; [5]) [µM] | IC50 (PPIL1; [6]) [µM] | IC50 (CypA; read-out: IC50 CypA, prolyl-isomerase inhibition, 5 nM cyclophilin) [µM] | IC50 (CypD; read-out: IC50 CypD, prolyl-isomerase inhibition, 5 nM cyclophilin, Suc-AAPF-AMC, mean±s.e.m. of 3 technical replicates (B52, B53, C3A wild-type: mean±s.d. of 4 independent replicates)) [µM]
1 | NC(=O)[C@@H]1CCNC(=O)/C=C/C(=O)N2CCC[C@](Cc3ccccc3)(C2)C(=O)N[C@@H](Cc2ccc(-c3ccc(C(CC(=O)O)CC(=O)O)cc3)cc2)C(=O)NCc2ccccc2CC(=O)N1 | 4 | > 50 | > 50 | > 50 | 0.1 | 1 | 6 | > 50 | > 50 | > 50 | > 50 |  |  |  |  | 
2 | NC(=O)[C@H]1CCNC(=O)/C=C/C(=O)N2CCC[C@@](Cc3ccccc3)(C2)C(=O)N[C@H](Cc2ccc(-c3ccc(CC(C(=O)O)C(=O)O)cc3)cc2)C(=O)NCc2ccccc2CC(=O)N1 | > 50 | > 50 | > 50 | > 50 |  | > 50 | > 50 | > 50 | > 50 | > 50 | > 50 |  |  |  |  | 
3 | COC(=O)c1ccc(-c2ccc(C[C@@H]3NC(=O)[C@]4(Cc5ccccc5)CCCN(C4)C(=O)/C=C/C(=O)NCC[C@@H](C(=O)NCCOCCN)NC(=O)Cc4ccccc4CNC3=O)cc2)cc1 | 0.12 | 21 | 0.14 |  | 0.08 | 0.23 | 0.5 | 6 | 0.7 | 40 | 0.8 | 0.13 |  |  |  | 
4 | NCCOCCNC(=O)[C@@H]1CCNC(=O)/C=C/C(=O)N2CCC[C@](Cc3ccccc3)(C2)C(=O)N[C@@H](Cc2ccc(-c3ccc(OCC(=O)O)cc3)cc2)C(=O)NCc2ccccc2CC(=O)N1 | 0.18 | > 25 | 0.27 | 1.3 | 0.028 | 0.07 | 0.5 | 11 | > 25 | > 25 | > 25 |  | 11 |  |  | 
5 | C[C@@H](Oc1ccc(-c2ccc(C[C@@H]3NC(=O)[C@]4(Cc5ccccc5)CCCN(C4)C(=O)/C=C/C(=O)NCC[C@@H](C(=O)NCCOCCN)NC(=O)Cc4ccccc4CNC3=O)cc2)cc1)C(=O)O | 2 | > 10 | 2 | > 10 | 1 | 2.1 | 10 | 10 | > 10 | > 10 | > 10 |  | 10 | 2 | 10 | 
6 | Cc1cc(C(=O)O)ccc1-c1ccc(C[C@@H]2NC(=O)[C@]3(Cc4ccccc4)CCCN(C3)C(=O)/C=C/C(=O)NCC[C@@H](C(=O)NCCOCCN)NC(=O)Cc3ccccc3CNC2=O)cc1 | 1.1 | > 100 | 11 | 4 |  | 1.4 | 1.6 | > 100 | 8 | > 100 | > 100 |  |  |  |  | 0.17
7 | NCCOCCNC(=O)[C@@H]1CCNC(=O)/C=C/C(=O)N2CCC[C@](Cc3ccccc3)(C2)C(=O)N[C@@H](C/C=C/c2ccccc2)C(=O)NCc2ccccc2CC(=O)N1 | 0.05 | 9 | 0.3 | 0.07 | 0.08 | 0.32 | 0.28 | 1.8 | 0.122 | 10 | 0.45 |  |  |  |  | 
8 | NC(=O)[C@@H]1CCNC(=O)/C=C/C(=O)N2CCC[C@](Cc3ccccc3)(C2)C(=O)N[C@@H](Cc2ccc(-c3ccc(CC(C(=O)O)C(=O)O)cc3)cc2)C(=O)NCc2ccccc2CC(=O)N1 | 0.6 | > 50 |  | 15 |  | 0.32 | 1.5 | > 50 | > 50 | > 50 | > 50 |  |  |  |  | 
9 | Cc1cccc(C[C@@H]2NC(=O)[C@]3(Cc4ccccc4)CCCN(C3)C(=O)/C=C/C(=O)NCC[C@@H](C(=O)NCCOCCN)NC(=O)Cc3ccccc3CNC2=O)c1 |  | > 100 | 10 | 3 | 1.5 | 12 | 10 | 23 | 7 | > 100 | 100 |  |  | 10 |  | 

Reference: article PMC9596378, “Discovery and molecular basis of subtype-selective cyclophilin inhibitors” (Nature Chemical Biology, 2022)
